# In article PMC6155625 (Molecules : A Journal of Synthetic Chemistry and Natural …, 2017):
# How the values were obtained:
# HepG2 cells [1] = test system: HepG2 cells
# Description: Thereafter, the medium was removed, and replaced by 200 µL of DMSO. The absorbance was measured at 540 and 690 nm using an xMarkTM Microplate Spectrophotometer (Bio-Rad Laboratories, Inc., Berkeley, CA, USA).
# S. typhimurium TA100 = details: S9 mix + 2-aminoflourene 50 µg/plate; unpublished data; compared with test without S9
# Description: (§1) The Ames assay was conducted according to the method modified by Maron and Ames. In the Ames test, three bacterial strains of S. typhimurium (TA97, TA98, and TA100) were used. These strains are deficient in histidine and biotin, and, at the same time, they are deficient in excision repair. Prior to each experiment, the quality of each bacterial strain was checked similarly, as described by Berg et al.. The assay was carried out in sterile test tubes containing 100 µL (approximately 1.10^8 cells/mL) of overnight bacterial culture (overnight cultivated in 50 mL of LB medium) and 2.5 mL of the top-agar (with traces of histidine and biotin). In the case of metabolic activation, S9 mix was used to activate a promutagen 2-aminofluorene (50 µg/plate, Serva, Heidelberg, Germany). […] As positive controls (PC), the following diagnostic/direct mutagens were used: 9-aminoacridine (50 µg/plate, Serva, Heidelberg, Germany) for TA97; 4-nitroquinoline-1-oxide (20 µg/plate, Serva, Heidelberg, Germany) for TA98; and sodium azide (50 µg/plate, Serva, Heidelberg, Germany) for TA100. […] After 48 h of cultivation at 37 °C, his^+ revertants were counted. All experiments were conducted in triplicate. The data obtained were then analyzed using Student’s t-test.
# S. typhimurium TA98 = details: S9 mix + 2-aminoflourene 50 µg/plate; unpublished data; compared with test without S9
# Description: as §1
# [2] = test system: Salmonella typhimurium TA97; details: S9 mix + 2-aminoflourene 50 µg/plate; unpublished data; compared with test without S9
# Description: as §1
# HepG2 cells [3] = assay: In vitro mammalian chromosome aberration test on HepG2; format: cell-based, human; details: 100 metaphases
# Description: HepG2 and VH10 cells were seeded into Petri dishes (Ø = 60 mm; HepG2 inoculum of 1 × 10^6 cells/dish and VH10 inoculum of 3.8 × 10^5 cells/dish) for 2 h. […] Three hours before the end of the cultivation, colchicine (0.75 µg/mL) was added. Before karyological processing, the cells were counted. Slides were prepared by the standard air-drying method and were stained with 2% aqueos Giemsa-Romanowski solution for 10 min.
# (§2) Chromosome aberrations were evaluated by a microscopic examination. For each sample, 100 metaphases were analyzed. We focused on the following structural aberrations; breaks, chromatid, and iso-chromatid, and exchanges, including dicentrics, rings, tri-radials and quadri-radials. The results were evaluated statistically on the basis of the difference between two relative values. The percentage of aberrant metaphases and the total number of chromosome aberrations was compared to solvent control (SC), or clastogenic effect, and positive control (PC), or anticlastogenic effect. Since the genetic significance of gaps is not clearly understood, they were not included in the assessment of chromosomal damage and thus were not evaluated statistically.
# VH10 cells = assay: In vitro mammalian chromosome aberration test on VH10; format: cell-based, human; details: 100 metaphases
# Description: HepG2 and VH10 cells were seeded into Petri dishes (Ø = 60 mm; HepG2 inoculum of 1 × 10^6 cells/dish and VH10 inoculum of 3.8 × 10^5 cells/dish) for 2 h. Then, HF non-clastogenic concentrations (0.75 or 1.5 µM) were added and the cultures were incubated for 24 h. These concentrations of HF were chosen based on preliminary experiments (range-finding tests). Afterwards the medium was replaced with fresh medium alone or with fresh medium containing mutagens B(a)P (1.7 μM for HepG2 cells) or cisPt (0.5 μM for HepG2 cells and 0.75 μM for VH10 cells), and the HepG2 cells were cultivated further for 42 h and VH10 cells for 36 h, which approximately corresponds to 1.3 cell cycles of HepG2 and VH10 cells. Three hours before the end of the cultivation, colchicine (0.75 µg/mL) was added. Before karyological processing, the cells were counted. Slides were prepared by the standard air-drying method and were stained with 2% aqueos Giemsa-Romanowski solution for 10 min.
# as §2
# human lymphocytes = details: HF 0.02–1 µM; preliminary experiments (unpublished data)
# primary hepatocytes = details: HF 2.5 and 5 µM, ref 18 (Komoroski et al.); cited from earlier work
# CYP2C9 = details: ref 39 (Obach); cited from earlier work
# CYP2D6 = details: ref 39 (Obach); cited from earlier work
# [4] = HF 0.75 µM alone, Table 1 experiment
# [5] = HF 0.75 µM alone, Table 2 experiment
# [6] = HF 1.5 µM alone, Table 1 experiment
# [7] = HF 1.5 µM alone, Table 2 experiment
substance,measurement,setting,value
Hyperforin [HF],viability of HepG2 cells (MTT),HepG2 cells [1]; HF 0.5–15 µM,did not reduce the viability
same,survival of HepG2 cells (MTT),HepG2 cells [1]; HF 50–260 µM,significantly reduced the survival
same,antimutagenic effect with S9 mix,S. typhimurium TA100,same results
same,antimutagenic effect with S9 mix,S. typhimurium TA98,same results
same,antimutagenic effect with S9 mix,[2],same results
same,Number of Aberrant Metaphases,HepG2 cells [3]; [4],2
same,"Number of Chromosome Aberrations, Chromatid b/f",HepG2 cells [3]; [4],2
same,"Number of Chromosome Aberrations, Chromatid g",HepG2 cells [3]; [4],1
same,Total Number of CA,HepG2 cells [3]; [4],2
same,Number of Aberrant Metaphases,HepG2 cells [3]; [5],1
same,"Number of Chromosome Aberrations, Chromatid b/f",HepG2 cells [3]; [5],1
same,Total Number of CA,HepG2 cells [3]; [5],1
same,Number of Aberrant Metaphases,HepG2 cells [3]; [6],2
same,"Number of Chromosome Aberrations, Chromatid b/f",HepG2 cells [3]; [6],2
same,Total Number of CA,HepG2 cells [3]; [6],2
same,Number of Aberrant Metaphases,HepG2 cells [3]; [7],3
same,"Number of Chromosome Aberrations, Isochromatid b/f",HepG2 cells [3]; [7],1
same,Total Number of CA,HepG2 cells [3]; [7],3
same,Number of Aberrant Metaphases,VH10 cells; HF 0.75 µM alone,1
same,"Number of Chromosome Aberrations, Chromatid b/f",VH10 cells; HF 0.75 µM alone,1
same,Total Number of CA,VH10 cells; HF 0.75 µM alone,1
same,Number of Aberrant Metaphases,VH10 cells; HF 1.5 µM alone,1
same,"Number of Chromosome Aberrations, Exchange dic",VH10 cells; HF 1.5 µM alone,1
same,Total Number of CA,VH10 cells; HF 1.5 µM alone,1
same,genotoxicity in comet assay,human lymphocytes,did not show any genotoxicity
same,mitochondrial activity,primary hepatocytes,caused a decrease in mitochondrial activity
same,type of inhibition of CYP2C9,CYP2C9,competitive inhibitor
same,type of inhibition of CYP2D6,CYP2D6,non-competitive inhibitor
